{
  "sequences": {"note": "Chains of the proteins cited; added tags and fusions are not shown. Residues count along the entry.", "UniProt P06935, 1371-1501 limits assumed": "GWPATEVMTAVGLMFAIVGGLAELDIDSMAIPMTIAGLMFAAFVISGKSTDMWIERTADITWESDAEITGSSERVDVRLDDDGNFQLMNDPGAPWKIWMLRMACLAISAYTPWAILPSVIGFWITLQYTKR", "UniProt P06935, 1502-1679 limits assumed": "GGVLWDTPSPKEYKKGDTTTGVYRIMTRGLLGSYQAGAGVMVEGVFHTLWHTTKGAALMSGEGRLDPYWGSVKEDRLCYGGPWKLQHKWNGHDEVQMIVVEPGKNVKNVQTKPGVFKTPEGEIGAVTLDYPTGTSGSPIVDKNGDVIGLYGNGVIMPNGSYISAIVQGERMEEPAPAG"},
  "source": "PubChem BioAssay AID577",
  "about": "(University of Pittsburgh Molecular Library Screening Center, 2007)",
  "note": "Only a part is listed here, and it is no random draw. Some of these compounds have results that are not shown, active ones among them. Activity calls are given as the source filed them. Rule as the data show it: active = z-score below about -3; inactive = the rest.",
  "data": [
    {"biological_target": "Genome polyprotein (West Nile virus) (UniProt P06935)", "assay": "West Nile NS2B-NS3 proteinase blockers – biochemical, fluorogenic substrate, primary screen (AID 577)", "conditions": "WNV NS2B-NS3 protease, fluorogenic substrate Ex360/Em465; stronger effect = lower value", "values": [
      {"smiles": "O=C(OC1CN2CCC1CC2)C(CO)(c1ccccc1)c1ccccc1", "note": "(configuration not stated)", "z-score": "inactive: -0.82"},
      {"smiles": "CN(C)c1cccc(C(=O)NCC2(N(C)C)CCCCC2)c1", "z-score": "inactive: -0.51"}
    ]}
  ]
}
